NR1D1 modulator: Rev-erb alpha (human) modulation | 0.79% of 370,000 active | Rev-erbα–FITC-DNA binding, fluorescence polarization, 90 min | AID 1259318 | activity, % at 10 µM | P20393;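 active = activity above about 14%, limit read from the data; passing the limit was not always enough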
GSIS activator: GLuc luminescence reporter in INS-1E cells, primary screen for activators of glucose-dependent secretion of insulin; INS-1E GLuc reporter insulin secretion, 2-3 h; AID 743287; activation, % at 16.6 µM; 0.61% of 370,000 active;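 active = lowest replicate activation of at least 40%, so every replicate reaches that level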
ERp5 block: blocks human ERp5 reductase activity on insulin. Q15084. ERp5 insulin aggregation, absorbance 650 nm, 90 min. inhibition, % at 9.99 µM. 0.05% of 350,000 active. AID 651711;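 active = mean replicate inhibition above about 25%, with every replicate also reaching it, limit read from the data, passing the limit was not always enough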
PDI inh: inhibitors of human protein disulfide isomerase; PDI insulin aggregation turbidity, A650, 90 min; 0.052% of 350,000 active; AID 588391; inhibition, % at 10 µM; P07237;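 active = mean inhibition across replicates of 30% or more, whatever share of single replicates reach that level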
Yeast UUG start: alters start codon recognition fidelity in yeast | S. cerevisiae UUG-firefly luciferase reporter, luminescence/redox ratio | activity score, % at 18.7 µM | hit rate 0.13% among 350,000 | AID 602363;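 active means replicate mean at a twofold rise or more, about +100% in these data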;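 further: firefly luciferase made from a UUG start codon reports start codon fidelity; reporter light over untreated wells divided by growth signal over untreated wells; some hits fall short of that in this replicate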
SMARCA2 activ: increases SMARCA2 function in MMTV reporter cells. MG213 cells, MMTV-luciferase reporter, dexamethasone, overnight. activation, % at 9.1 µM. 1% of 370,000 active; in the data active = activation above about 7.8%
SMARCA2 conf: confirmation of SMARCA2 (BRM) function activators; MG213 cells, MMTV-luciferase with dexamethasone, luminescence, overnight; MG213 cells expressing E1A, Rb sequestered; DMSO wells 0%, reference activator 100%; 30% of 3,500 active; shares compounds with SMARCA2 activ; AID 652260; activation, % at 9.1 µM;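 active = activation above its plate's cutoff, the mean activation of tested wells plus 3 SD, cut at about 7.9% in these data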
VP16 Luc act: activates GAL4-VP16 luciferase, flagging SMARCA2 activator hits. shares compounds with SMARCA2 activ. HEK293 GAL4-VP16 pG5luc reporter, luciferase luminescence; scaled: DMSO wells 0%, SAHA wells 100%. activation, % at 9.1 µM. 41% of 3,500 active. AID 686939;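 active = activation above the solvent-only control well mean plus 3 SD, averaged across control plates, cut at about 5.2% in these data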
NR1D1 mod conf: confirmation of modulators of human Rev-erb alpha DNA binding | shares compounds with NR1D1 modulator | Rev-erb alpha FITC-DNA binding, fluorescence polarization, 90 min | activation, % at 25 µM | 61% of 3,000 active;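 active = activation at or above a set limit, or at least 3 SD above the negative control mean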
RORg counter: RORgamma DNA-binding activity, dose-response counter-screen | shares compounds with NR1D1 modulator | purified RORgamma protein-FITC-DNA binding, fluorescence polarization | IC50, µM | 8% of 910 active | AID 1259320;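 active = Compounds whose fitted half-maximal concentration for disrupting protein-DNA binding is below 10 micromolar; the record names Rev-erb in its text, so the target is in doubt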
Large screens that a line does not name were inactive (follow-up assays come after a bar, where they were run). Compounds with a hit are over-represented: about 2.1% of the library has one in this group of screens.

C[C@@H]1CN([C@@H](C)CO)C(=O)c2cc(NC(=O)c3ccccc3)ccc2O[C@@H](C)CCCCO[C@@H]1CN(C)C(=O)Nc1cccc2ccccc12	none (no result: NR1D1 modulator, PDI inh, SMARCA2 activ)
O=C1c2cccc3cccc(c23)C(=O)N1CCO	none
O=C1c2cccc3c(N4CCCCC4)ccc(c23)C(=O)N1CCO	NR1D1 modulator 47, SMARCA2 activ 8.5 (no result: GSIS activator, ERp5 block) | SMARCA2 conf 7.8 | VP16 Luc act 8.6 | NR1D1 mod conf 33 | RORg counter inactive
C[C@@H](NC(=O)C[C@H]1C=C[C@H](NC(=O)Cc2ccccn2)[C@H](CO)O1)c1ccccc1	none (no result: NR1D1 modulator, PDI inh, Yeast UUG start, SMARCA2 activ)
O=C(c1ccccc1)N1CC2(C1)[C@@H](c1ccccc1)[C@H](CO)N2C(=O)CC1CC1	none (no result: NR1D1 modulator, PDI inh, Yeast UUG start, SMARCA2 activ)
COC(=O)c1c(-c2cccnc2)csc1NC(=O)c1ccc2c(c1)OCO2	NR1D1 modulator 20, SMARCA2 activ 9.4 | SMARCA2 conf inactive | VP16 Luc act 15 | NR1D1 mod conf inactive
CN(C)CCNc1ccc2ncn3c4ccc(O)cc4c(=O)c1c23	NR1D1 modulator 20, SMARCA2 activ 15 (no result: GSIS activator, Yeast UUG start) | SMARCA2 conf 141 | VP16 Luc act inactive | NR1D1 mod conf 24
COc1ccc(S(=O)(=O)N(C)C[C@@H]2Oc3ccc(N(C)C)cc3CC(=O)N([C@@H](C)CO)C[C@H]2C)cc1	none (no result: NR1D1 modulator, PDI inh, SMARCA2 activ)
Cn1nc2c3ccccc3n(Cc3ccccc3)c2nc1=S	NR1D1 modulator 30, SMARCA2 activ 9.1 (no result: Yeast UUG start) | SMARCA2 conf 10 | VP16 Luc act inactive | NR1D1 mod conf 23
CC(=O)Nc1ccc(NC(=O)CCc2nc3sc4c(c3c(=O)[nH]2)CCCC4)cc1	none
Cc1cc(C)cc(NC(=O)CCc2nc3sc4c(c3c(=O)[nH]2)CCCC4)c1	NR1D1 modulator 30, SMARCA2 activ 24 | SMARCA2 conf 28 | VP16 Luc act inactive | NR1D1 mod conf inactive
CCCC(=O)N1CCC2(CC1)CN[C@@H](CO)c1c2c2ccc(OC)cc2n1C	none (no result: NR1D1 modulator, ERp5 block, PDI inh, Yeast UUG start, SMARCA2 activ)
c1csc(-c2nc(-c3ccc(-c4ccon4)s3)no2)c1	NR1D1 modulator 21, SMARCA2 activ 8.9 (no result: Yeast UUG start) | SMARCA2 conf inactive | VP16 Luc act 9.7 | NR1D1 mod conf inactive
COc1cccc(-c2nnc(-c3ccc(C(F)(F)F)cc3)o2)c1	none (no result: GSIS activator, ERp5 block)
Oc1ccccc1-c1nnc(-c2ccc(C(F)(F)F)cc2)o1	NR1D1 modulator 39, SMARCA2 activ 9.9 (no result: GSIS activator, ERp5 block) | SMARCA2 conf inactive | VP16 Luc act 6.9 | NR1D1 mod conf 23
Cc1noc(C)c1S(=O)(=O)Nc1ccc2c(c1)C(=O)N([C@@H](C)CO)C[C@H](C)[C@@H](CN(C)C(=O)Nc1ccc3c(c1)OCO3)OCCCC[C@H](C)O2	none (no result: NR1D1 modulator, PDI inh, SMARCA2 activ)
COc1ccc2c(COC(=O)c3n[nH]c4ccccc34)cc(=O)oc2c1	NR1D1 modulator 59, SMARCA2 activ 9.5 (no result: ERp5 block) | SMARCA2 conf inactive | VP16 Luc act 11 | NR1D1 mod conf 34 | RORg counter inactive
COc1ccc2nc(SC)c(C#N)cc2c1	NR1D1 modulator 42 | NR1D1 mod conf 47 | RORg counter inactive
COc1ccc2nc(SCc3cccnc3)c(C#N)cc2c1	NR1D1 modulator 86 (no result: GSIS activator, ERp5 block) | NR1D1 mod conf 56 | RORg counter inactive
COc1ccc2nc(SCC(C)=O)c(C#N)cc2c1	none (no result: ERp5 block)
N#Cc1cc2ccccc2nc1SCc1cccnc1	none (no result: Yeast UUG start)
C[C@H](O)[C@@H]1C(=O)N2CCc3c([nH]c4c(-c5ccccc5)cccc34)[C@@H]2C[C@@H]1N(C)C(=O)c1cc(Cl)cc(Cl)c1	none (no result: PDI inh, Yeast UUG start)
Cc1ccccc1C(=O)N(C)[C@H]1C[C@H]2c3[nH]c4c(-c5ccccc5)cccc4c3CCN2C(=O)[C@H]1[C@H](C)O	NR1D1 modulator 13 (no result: PDI inh, Yeast UUG start) | NR1D1 mod conf inactive

Screening data deposited in PubChem by several laboratories.
